Earlier results in PMC5490379 (Molecular pharmaceutics, 2017).

Biological target: σ2 receptor
Conditions: read-out: Ki σ2; ref [30]; cited from earlier work

In the case of `COc1cccc2c1CCCC2CCCN1CCN(C2CCCCC2)CC1` (stereo not shown) [[^11C]PB28], the Ki is listed as 5.92 nM.
